# From PubChem BioAssay AID560 (The Scripps Research Institute Molecular Screening Center, 2006)
# Sequences of proteins named here, by UniProt entry; tags and fusion partners are left off.
# UniProt P35398, whole entry: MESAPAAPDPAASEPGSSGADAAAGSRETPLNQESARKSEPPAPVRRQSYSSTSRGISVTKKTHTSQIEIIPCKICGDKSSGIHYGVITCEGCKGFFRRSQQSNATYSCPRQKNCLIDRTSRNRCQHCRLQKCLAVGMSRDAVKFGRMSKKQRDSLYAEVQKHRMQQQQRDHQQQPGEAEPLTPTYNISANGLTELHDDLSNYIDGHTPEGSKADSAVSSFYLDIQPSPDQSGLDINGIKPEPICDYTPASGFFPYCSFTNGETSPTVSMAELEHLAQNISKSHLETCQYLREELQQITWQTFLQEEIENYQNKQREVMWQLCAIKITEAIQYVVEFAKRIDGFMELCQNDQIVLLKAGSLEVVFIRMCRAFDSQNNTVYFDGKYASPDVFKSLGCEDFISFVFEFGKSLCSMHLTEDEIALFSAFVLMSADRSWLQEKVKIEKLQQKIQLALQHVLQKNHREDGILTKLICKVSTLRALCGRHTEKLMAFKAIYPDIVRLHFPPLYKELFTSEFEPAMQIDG
# The entries are a selection whose mix differs from that of the whole data set. The source made the active and inactive calls.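 Rule for the calls: active = activation above the mean of all tested compounds plus 3 SD (cut at about 49% in these data); inactive = the rest.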
# Target: Nuclear receptor ROR-alpha (Homo sapiens) (UniProt P35398)
# Assay: RORA ligand-binding domain transcriptional activation – cell-based, luminescence, primary screen (AID 560);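 note: 0% = DMSO-treated RORA cells and 100% = added signal equal to DMSO minus mock-transfected cells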
# Settings: CHO-K1 Gal4-RORA LBD luciferase reporter, at 10 µM, hits give high values, percent increase over mock-subtracted basal signal
row,Structure (SMILES),activation
1,N#CC1(Nc2ccccc2)CCN(CCc2ccccc2)CC1,inactive: 3.2%
2,O=C(OC1CN2CCC1CC2)C1c2ccccc2Oc2ccccc21 (configuration not stated),inactive: 0.5%
3,COc1ccc(NC2CCN(CCc3ccccc3)CC2)c(OC)c1,inactive: -18.8%
4,Fc1ccccc1NC1CCN(Cc2ccccc2)CC1,inactive: -14.4%
5,CCOc1ncccc1C(=O)NCC1(N2CCOCC2)CCCCC1,inactive: -12.7%
6,CCC(CO)(C(=O)OC1CN2CCC1CC2)c1ccccc1 (configuration not stated),inactive: -5.1%
7,N/C(=N\O)c1c(N)no[n+]1[O-],inactive: 10.2%
